Assay results from PubChem BioAssay AID1224903 (Bradner/Qi Labs at DFCI, 2016).
The list shows a part of the results, in another mix than the full data. Calls of active or inactive are those of the source. No stated cut-off is given here; in the data, active means normalised signal below about 0.5; inactive means the rest, inconclusive results apart.

Sequences of proteins named here, by UniProt entry; tags and fusion partners are left off.
UniProt O95931, whole entry: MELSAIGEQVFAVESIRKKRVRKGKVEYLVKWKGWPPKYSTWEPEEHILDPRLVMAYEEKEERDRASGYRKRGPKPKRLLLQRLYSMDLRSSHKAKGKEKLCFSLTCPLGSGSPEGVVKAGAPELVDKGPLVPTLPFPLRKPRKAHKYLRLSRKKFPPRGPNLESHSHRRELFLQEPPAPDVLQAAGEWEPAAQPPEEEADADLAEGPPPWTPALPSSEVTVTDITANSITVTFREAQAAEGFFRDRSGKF

target: Chromobox protein homolog 7 (Homo sapiens) (UniProt O95931); assay: blockers of CBX7 binding to H3K27me3 peptide – biochemical, AlphaScreen, primary screen (AID 1224903); details: AlphaScreen His6-CBX7 / biotin-H3K27me3 peptide binding; stronger effect = lower value

| SMILES | normalised signal (fraction of DMSO) |
| --- | --- |
| C1CN(c2nonc2-[n+]2nc3nonc3[n-]2)CCO1 | inactive: 0.875 |
| O=C(OCCN1CCN(CCOCc2ccccc2)CC1)C(O)(c1ccccc1)c1ccccc1 | inactive: 1.39 |
| C=CCN1CCN(CCOC(=O)C(O)(c2ccccc2)c2ccccc2)CC1 | inactive: 1.38 |
